Consider 1 compound from ChEMBL document CHEMBL6071206, “Development of BODIPY FL SNS 032 as a Versatile Probe for Constitutive Androstane Receptor and Multiple Kinases” (ACS Med Chem Lett, 2024).

Amino acid sequences for entries named in this document (tags omitted). A change or cut given only in a name is not applied to a line headed by its entry.
UniProt P49840: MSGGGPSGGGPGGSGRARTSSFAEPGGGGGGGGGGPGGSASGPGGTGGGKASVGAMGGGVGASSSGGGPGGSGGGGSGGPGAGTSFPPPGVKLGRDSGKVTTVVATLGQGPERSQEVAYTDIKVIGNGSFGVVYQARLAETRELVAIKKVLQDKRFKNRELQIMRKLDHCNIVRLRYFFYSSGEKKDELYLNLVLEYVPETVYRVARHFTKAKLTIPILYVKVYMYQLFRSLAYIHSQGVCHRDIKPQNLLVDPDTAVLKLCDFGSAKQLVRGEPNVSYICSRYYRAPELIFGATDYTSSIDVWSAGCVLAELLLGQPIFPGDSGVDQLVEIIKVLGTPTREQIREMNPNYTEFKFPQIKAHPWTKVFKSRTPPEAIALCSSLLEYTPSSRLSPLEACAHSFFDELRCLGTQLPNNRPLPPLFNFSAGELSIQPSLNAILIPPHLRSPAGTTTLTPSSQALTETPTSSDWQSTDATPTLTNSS
UniProt Q96RR4, whole entry, looked up: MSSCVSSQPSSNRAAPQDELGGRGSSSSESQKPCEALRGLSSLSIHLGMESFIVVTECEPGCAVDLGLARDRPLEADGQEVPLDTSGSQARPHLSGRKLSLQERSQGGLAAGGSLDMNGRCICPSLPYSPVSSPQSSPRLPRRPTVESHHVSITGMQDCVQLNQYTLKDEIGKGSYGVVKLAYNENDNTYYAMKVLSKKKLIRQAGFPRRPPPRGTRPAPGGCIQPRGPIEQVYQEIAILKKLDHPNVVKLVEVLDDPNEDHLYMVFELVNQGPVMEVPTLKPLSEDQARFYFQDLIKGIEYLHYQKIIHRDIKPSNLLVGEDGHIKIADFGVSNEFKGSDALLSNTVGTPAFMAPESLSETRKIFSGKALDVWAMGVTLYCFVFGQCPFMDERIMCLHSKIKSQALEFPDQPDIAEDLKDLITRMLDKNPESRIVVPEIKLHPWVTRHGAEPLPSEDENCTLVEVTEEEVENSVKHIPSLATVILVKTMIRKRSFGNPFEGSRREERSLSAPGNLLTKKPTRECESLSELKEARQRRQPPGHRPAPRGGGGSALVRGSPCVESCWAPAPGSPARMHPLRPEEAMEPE

The target in experiment [1] is T1, Glycogen synthase kinase-3 alpha (Homo sapiens, UniProt P49840). The experiment in a line: Binding affinity to GST-tagged human GSK3A assessed as fold change in FRET signal at 3.9 nM incubated for 90 mins by TR-FRET assay relative to control.
The target of experiment [2] is T1, Glycogen synthase kinase-3 alpha. The experiment can be described thus: Binding affinity to GST-tagged human GSK3A assessed as fold change in FRET signal at 4.5 nM incubated for 90 mins by TR-FRET assay relative to control. A general note: Time-resolved FRET reads energy transfer from a long-lived donor to a nearby acceptor.
Experiment [3] deals with T2, Mitogen-activated protein kinase 15 (Homo sapiens) (UniProt Q8TD08).
T2 sequence (whole entry): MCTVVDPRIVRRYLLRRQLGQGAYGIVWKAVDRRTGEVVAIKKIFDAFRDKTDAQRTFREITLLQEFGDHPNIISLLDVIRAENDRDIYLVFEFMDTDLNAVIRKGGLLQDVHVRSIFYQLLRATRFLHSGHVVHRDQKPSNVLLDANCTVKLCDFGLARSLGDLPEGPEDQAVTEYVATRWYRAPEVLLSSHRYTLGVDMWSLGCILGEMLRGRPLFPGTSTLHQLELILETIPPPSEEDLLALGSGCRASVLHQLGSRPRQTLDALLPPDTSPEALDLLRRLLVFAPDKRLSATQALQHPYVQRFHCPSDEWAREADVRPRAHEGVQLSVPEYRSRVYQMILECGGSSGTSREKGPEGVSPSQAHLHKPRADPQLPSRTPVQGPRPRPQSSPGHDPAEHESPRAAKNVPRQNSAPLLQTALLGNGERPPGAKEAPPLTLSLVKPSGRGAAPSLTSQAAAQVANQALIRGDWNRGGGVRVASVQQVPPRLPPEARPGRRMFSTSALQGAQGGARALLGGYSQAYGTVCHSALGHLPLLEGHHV
The experiment in a line: Binding affinity to Flag/His-tagged human MAPK15 assessed as fold change in FRET signal at 125 nM incubated for 90 mins by TR-FRET assay relative to control.

Experiment [4] addresses T2, Mitogen-activated protein kinase 15 (Homo sapiens). The experiment in a line: Binding affinity to Flag/His-tagged human MAPK15 assessed as fold change in FRET signal at 339.9 nM incubated for 90 mins by TR-FRET assay relative to control.
Experiment [5] has as its target T3, Peripheral plasma membrane protein CASK (Homo sapiens) (UniProt O14936).
T3 sequence (whole entry): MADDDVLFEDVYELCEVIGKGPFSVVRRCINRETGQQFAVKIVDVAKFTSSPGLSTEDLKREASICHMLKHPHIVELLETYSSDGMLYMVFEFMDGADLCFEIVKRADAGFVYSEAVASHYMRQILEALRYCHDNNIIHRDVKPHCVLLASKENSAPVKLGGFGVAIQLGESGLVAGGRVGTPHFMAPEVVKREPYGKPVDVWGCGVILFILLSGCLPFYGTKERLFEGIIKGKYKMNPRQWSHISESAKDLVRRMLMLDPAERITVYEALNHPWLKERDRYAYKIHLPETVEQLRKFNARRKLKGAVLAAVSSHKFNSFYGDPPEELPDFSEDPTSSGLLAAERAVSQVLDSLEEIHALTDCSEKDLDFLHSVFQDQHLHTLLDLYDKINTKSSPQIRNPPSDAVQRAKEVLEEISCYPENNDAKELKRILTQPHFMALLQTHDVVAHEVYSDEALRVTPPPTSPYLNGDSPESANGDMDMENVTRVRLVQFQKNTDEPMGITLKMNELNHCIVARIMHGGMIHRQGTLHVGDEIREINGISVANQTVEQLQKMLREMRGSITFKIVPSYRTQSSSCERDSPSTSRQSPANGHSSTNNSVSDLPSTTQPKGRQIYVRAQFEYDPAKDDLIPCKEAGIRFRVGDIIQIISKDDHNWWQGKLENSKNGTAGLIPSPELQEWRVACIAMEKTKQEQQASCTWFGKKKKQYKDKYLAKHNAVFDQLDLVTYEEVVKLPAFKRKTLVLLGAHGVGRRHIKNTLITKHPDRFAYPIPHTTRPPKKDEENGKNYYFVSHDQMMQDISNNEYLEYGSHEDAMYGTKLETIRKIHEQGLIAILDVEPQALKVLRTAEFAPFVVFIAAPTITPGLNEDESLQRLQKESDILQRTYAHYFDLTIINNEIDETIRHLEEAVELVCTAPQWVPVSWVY
The experiment in a line: Binding affinity to GST-tagged human CASK assessed as fold change in FRET signal at 125 nM incubated for 90 mins by TR-FRET assay relative to control.

Experiment [6] has as its target T3, Peripheral plasma membrane protein CASK (Homo sapiens). The experiment in a line: Binding affinity to GST-tagged human CASK assessed as fold change in FRET signal at 551.5 nM incubated for 90 mins by TR-FRET assay relative to control.
Experiment [7] addresses T4, Calcium/calmodulin-dependent protein kinase kinase 2 (Homo sapiens, UniProt Q96RR4). The experiment can be described thus: Binding affinity to GST-tagged human CAMKK2 assessed as fold change in FRET signal at 125 nM incubated for 90 mins by TR-FRET assay relative to control.
The target in experiment [8] is T4, Calcium/calmodulin-dependent protein kinase kinase 2. The experiment can be described thus: Binding affinity to GST-tagged human CAMKK2 assessed as fold change in FRET signal at 533.2 nM incubated for 90 mins by TR-FRET assay relative to control.

In the case of `Cc1cc(C)n2c1C=C1C=CC(CCC(=O)N3CCC(C(=O)Nc4ncc(SCc5ncc(C(C)(C)C)o5)s4)CC3)=[N+]1[B-]2(F)F`, the fold change (FC) in experiment [1] came out at 26.9; in experiment [2] it was 26.9; in experiment [3] it was 4.7; in experiment [4] it was 3.8; in experiment [5], 3.7; in experiment [6], 2.8. Further, the fold change (FC) in experiment [7] amounted to 3; in experiment [8], 2.5.
